Data published in ChEMBL document CHEMBL1125142, “Highly selective kappa-opioid analgesics. 3. Synthesis and structure-activity relationships of novel N-[2-(1-pyrrolidinyl)-4- or -5-substituted-cyclohexyl]arylacetamide derivatives” (1990).
pKi: −log10 of the molar value.

The chains behind the UniProt entries cited, without tags or fusion partners. Where a name states a change or a piece, a line headed by the entry shows the natural chain unless it says otherwise.
UniProt P41144: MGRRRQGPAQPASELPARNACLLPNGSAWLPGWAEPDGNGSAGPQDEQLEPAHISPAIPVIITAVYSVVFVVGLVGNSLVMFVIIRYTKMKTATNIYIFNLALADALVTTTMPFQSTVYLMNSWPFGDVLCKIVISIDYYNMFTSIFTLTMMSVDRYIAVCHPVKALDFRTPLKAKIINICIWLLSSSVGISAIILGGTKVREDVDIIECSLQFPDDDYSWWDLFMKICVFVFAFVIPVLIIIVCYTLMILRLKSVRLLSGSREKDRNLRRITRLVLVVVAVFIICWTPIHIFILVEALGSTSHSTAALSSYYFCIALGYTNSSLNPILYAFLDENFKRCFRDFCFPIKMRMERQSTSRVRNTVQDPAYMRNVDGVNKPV

Tests used:
[1] = test system: Rattus norvegicus; assay: Dose required to produce 50 percent of maximum possible analgesic effect (MPE) was evaluated by rat paw pressure test (iv)
[2] = target: Kappa-type opioid receptor (Cavia porcellus, UniProt P41144); assay: Binding affinity against Opioid receptor kappa 1
[3] = Binding affinity against Opioid receptor mu 1

Structure (SMILES) | MPE50 [1] [mg/kg] | pKi [2] | pKi [3]
CN1CC[C@]23c4c5ccc(O)c4O[C@H]2[C@@H](O)C=C[C@H]3[C@H]1C5.Cl | 0.6 |  | 
CO[C@H]1CC(N(C)C(=O)Cc2cccc3sccc23)[C@@H](N2CCCC2)C[C@H]1OC.Cl (stereo partly drawn) | 0.8 |  | 
CN(C(=O)Cc1ccc(Cl)c(Cl)c1)C1CCC2(CCCO2)CC1N1CCCC1 (stereo not drawn) | 0.4 |  | 
CN(C(=O)Cc1cccc2sccc12)[C@H]1CCCC[C@@H]1N1CCCC1 |  | 8.43 | 
CN(C(=O)Cc1cccc2occc12)[C@@H]1CC[C@]2(CCCO2)C[C@H]1N1CCCC1 |  | 9.08 | 5.90
CO[C@H]1CC(N(C)C(=O)Cc2cccc3sccc23)[C@@H](N2CCCC2)C[C@H]1OC (stereo partly drawn) |  | 7.80 | 
CN(C(=O)Cc1cccc2occc12)[C@@H]1CC[C@]2(CCCO2)C[C@H]1N1CCCC1.Cl | 0.024 |  | 
